According to US20130158024A1, “TRICYCLIC NECROSTATIN COMPOUNDS” (priority 2005, published 2013):
Entries after “also recorded” stand apart in the source; their conditions may differ.

Molecular target: T1, RIP1 (Homo sapiens, UniProt Q13546)
T1 construct: RIP has been immunoprecipitated (IP) from lysates of WT and RIP-deficient Jurkat cells using agarose-conjugated anti-RIP antibody; endogenous in cells; host or cells: Jurkat (wild type)
T1 sequence (Q13546 1-671): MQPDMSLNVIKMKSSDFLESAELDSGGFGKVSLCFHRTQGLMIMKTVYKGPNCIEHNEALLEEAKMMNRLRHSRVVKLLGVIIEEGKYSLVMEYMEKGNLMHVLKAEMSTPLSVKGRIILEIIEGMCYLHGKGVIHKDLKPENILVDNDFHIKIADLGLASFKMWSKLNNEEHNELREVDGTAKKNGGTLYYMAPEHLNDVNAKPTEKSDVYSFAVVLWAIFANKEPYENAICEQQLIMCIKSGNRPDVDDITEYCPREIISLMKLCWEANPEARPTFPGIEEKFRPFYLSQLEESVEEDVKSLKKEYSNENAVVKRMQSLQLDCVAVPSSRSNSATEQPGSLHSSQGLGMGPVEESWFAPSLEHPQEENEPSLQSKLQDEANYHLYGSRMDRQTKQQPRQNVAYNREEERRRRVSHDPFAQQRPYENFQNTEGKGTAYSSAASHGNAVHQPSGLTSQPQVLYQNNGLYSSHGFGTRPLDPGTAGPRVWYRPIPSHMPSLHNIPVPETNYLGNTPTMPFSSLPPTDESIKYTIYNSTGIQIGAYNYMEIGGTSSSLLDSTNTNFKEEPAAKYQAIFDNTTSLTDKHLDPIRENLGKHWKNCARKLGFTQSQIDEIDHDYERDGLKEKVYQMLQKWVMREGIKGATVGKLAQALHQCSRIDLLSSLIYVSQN
Experiment: In vitro kinase assay: autophosphorylation of immunoprecipitated RIP1
Type: biochemical
Details: radioactive ATP, 30 min at 30° C., autoradiography

Substance: methylthiohydantoin-tryptophane [Nec-1]
- inhibition of RIP1 autophosphorylation, in words: inhibits the autophosphorylation of RIP1; also recorded: inhibited the autophosphorylation of RIP1 in vitro
